Experimental data reported in article PMC9413219 (Journal of Agricultural and Food Chemistry, 2022).

Tested on: rumen inoculum from fistulated cows
Test: In vitro batch culture incubation of a Senecio PA mixture with rumen inoculum
Format: in vitro ADME
Details: incubation with rumen inoculum up to 20 h

**Q.** Which “degradation rate in rumen incubation (half-life ranking)” value does the source give for retrorsine here?
**A.** ranged in the middle
